Laboratory results from article PMC8725971, “Polycyclic nitrogen heterocycles as potential thymidine phosphorylase inhibitors: synthesis, biological evaluation, and molecular docking study” (Journal of Enzyme Inhibition and Medicinal Chemistry, 2021).

Chains of the proteins cited; added tags and fusions are not shown. Lines headed by an entry give the natural chain unless they say otherwise; changes in a name come on top.
UniProt P07650: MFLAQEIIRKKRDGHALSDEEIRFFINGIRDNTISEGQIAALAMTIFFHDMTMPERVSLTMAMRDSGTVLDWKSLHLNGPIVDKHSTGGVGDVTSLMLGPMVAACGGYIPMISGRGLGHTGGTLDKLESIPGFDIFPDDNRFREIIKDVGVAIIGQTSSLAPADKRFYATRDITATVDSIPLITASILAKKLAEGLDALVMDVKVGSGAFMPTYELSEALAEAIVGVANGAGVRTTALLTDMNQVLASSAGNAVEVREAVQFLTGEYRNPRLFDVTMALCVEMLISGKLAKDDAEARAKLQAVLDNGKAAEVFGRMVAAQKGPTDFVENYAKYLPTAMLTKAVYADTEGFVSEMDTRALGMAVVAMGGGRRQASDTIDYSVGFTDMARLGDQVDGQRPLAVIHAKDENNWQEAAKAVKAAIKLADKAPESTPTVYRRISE

Molecular target: T1, E. coli TP (Escherichia coli, UniProt P07650)
T1 construct: purchased Sigma Aldrich T2807-1KU
Test: In vitro E. coli thymidine phosphorylase inhibition, spectrophotometric assay at 290 nm
Assay type: biochemical
Conditions: 300 µM thymidine, pH 7.4, 25 °C
Protocol: The adopted protocol is a modification of the original method developed by Khan[51]. TP activity and inhibition assays were based on the phosphorolysis of thymidine to thymine, this conversion results in a significant spectrophotometric decrease. At 290 nm and pH 7.4, thymidine has a higher extinction coefficient than thymine (Δε = −480 M^−1 cm^−1). The absorbance at 290 nm was measured every 2 min for 30 min in 96-well plates at 25 °C.
Thymidine was dissolved in buffer (3 mM). […] All experiments were conducted in triplicate.
The method reported by Khan et al.[51] has been adapted to a screening in 96-well plates (200 µL well, UV-Star® 96-well microplate, Greiner). Each well contained 160 µL of 50 mM KH2PO4 buffer (pH 7.4), 0.006 U of E. coli TP (T2807-1KU, Sigma Aldrich), and 20 µL of the tested compound solution. […] The decrease in absorbance due to conversion of thymidine to thymine was followed during 30 min (PowerWave HT Microplate Reader, Biotek) at 25 °C, with one measure every 2 min and a 30 s shaking before each measure.

O=c1[nH]c(=O)c2cc[nH]c2[nH]1 [Compound 7-DX, 7-Deazaxanthine, reference compound]
IC50: 28 µM
